Results on one compound are retold here after ChEMBL document CHEMBL4368868, “Selected aryl thiosemicarbazones as a new class of multi-targeted monoamine oxidase inhibitors” (Medchemcomm, 2018).

Chains of the proteins cited; added tags and fusions are not shown.
UniProt P21397, whole entry: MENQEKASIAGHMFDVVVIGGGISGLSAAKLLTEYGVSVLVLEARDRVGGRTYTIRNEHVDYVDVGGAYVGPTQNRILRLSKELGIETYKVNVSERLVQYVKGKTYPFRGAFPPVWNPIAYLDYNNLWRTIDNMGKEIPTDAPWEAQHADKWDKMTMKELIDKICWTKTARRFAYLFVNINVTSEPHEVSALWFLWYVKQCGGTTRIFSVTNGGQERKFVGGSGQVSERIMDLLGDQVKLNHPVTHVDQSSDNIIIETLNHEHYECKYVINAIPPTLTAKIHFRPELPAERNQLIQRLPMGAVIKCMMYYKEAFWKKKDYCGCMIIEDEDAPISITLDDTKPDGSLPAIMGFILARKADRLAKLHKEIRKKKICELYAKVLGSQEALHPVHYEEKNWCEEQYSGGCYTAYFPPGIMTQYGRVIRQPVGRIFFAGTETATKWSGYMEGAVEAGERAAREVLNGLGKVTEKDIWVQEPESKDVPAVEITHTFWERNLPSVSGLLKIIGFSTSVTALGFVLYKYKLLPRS

This test concerns the target Amine oxidase [flavin-containing] A (Homo sapiens, UniProt P21397).

For `C#CCN(C)Cc1ccccc1` [PARGYLINE], the midpoint of inhibition, the IC50, lay at 1310 nM.
